From US4977273A, “Fluorine-containing 2-nitroimidazole derivatives” (Kyoto University of Honmachi, priority 1988, dated 1990) come the findings set out here.

A short description of the data set: in vivo. To be noted: mouse, female ICR mice of 5 weeks.

Usually LD50 stands for the dose expected to kill half of the subjects tested.

`COCC(O)Cn1ccnc1[N+](=O)[O-]` (stereo not shown) [Comparative (1), 1-(2-Nitro-1-imidazolyl)-3-methoxy-2-propanol, reference compound] yielded an LD50 of 1200 mg/kg.
